# Laboratory results: PubChem BioAssay AID2283688 (EPA ToxCast)
# The entries are a selection whose mix differs from that of the whole data set. Results filed as inconclusive are left out. Active and inactive are the calls of the source. The calls were made as follows: active = hit-call score of the fitted dose curve at least 0.9, where 1 is the maximum; inconclusive = response in the unintended direction; inactive = score below 0.9.
# Read-out: xenobiotic metabolism (CYP2C9), CYP2C9 (gene 1559)
# Experiment: CLD_CYP2C9_24hr: CellzDirect (CLD) Gene Expression Assay for xenobiotic metabolism (CYP1A2) at 24 hours
# Procedure, shortened: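 Primary human hepatocytes from two donor preparations, dosed daily for two days at multiple concentrations; vehicle 0.2% DMSO. CYP2C9 mRNA induction at 24 h measured by qNPA chemiluminescence relative to DMSO; cytotoxicity annotated from morphology.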
structure (smiles),measurement,value
CC(C)OP(=S)(OC(C)C)SCCNS(=O)(=O)c1ccccc1,outcome,inactive
